US20260248646A1, “INTRAOCULAR DRUG ADMINISTRATION DEVICE, AGENT RESERVOIR, AND METHOD FOR OPERATING INTRAOCULAR DRUG ADMINISTRATION DEVICE” (TERUMO KABUSHIKI KAISHA, priority 2022, published 2026)

Test system: porcine cornea

- migration depth of test substance at the corneal surface (fluorescence image): large and small migration depths
Substance: 6-carboxyfluorescein-labeled DNA (16 base pairs) [test substance]
